This note sets out measurements from PMC4926433, “Isoquercitrin Esters with Mono- or Dicarboxylic Acids: Enzymatic Preparation and Properties” (International Journal of Molecular Sciences, 2016).

This series is described as follows: Partition coefficient (log P) in octan-1-ol/phosphate buffer pH 7.4. Particulars: octan-1-ol/phosphate buffer pH 7.4, 25 °C. On the procedure: The hydrophobicity of the prepared compounds was determined by the measurement of partition coefficient P in a mixture of two immiscible phases—octan-1-ol and 6.6 mM phosphate buffer pH 7.4 to simulate physiological conditions. Before the use, octan-1-ol was stirred with the buffer for 16 h at 25 °C to achieve saturation of both phases, which were then separated.
Then, 150 µL of the stock solutions were mixed with 150 µL of the respective immiscible phase in microcentrifuge tubes (1.5 mL) and stirred (750 rpm) for 2 h at 25 °C in triplicates. Phases were separated and the solute concentration in each phase was determined in 96-well microtitration plates using Sunrise™ spectrophotometer (Schoeller Instruments, Prague, Czech Republic) at 400 nm. Log P was calculated as follows: log Poct/buffer = log([A]octan-1-ol/[A]buffer).

For the substance quercetin [reference compound], the “log P” value was determined as 1.94.
